We go through one compound from PubChem BioAssay AID1963597 (National Center for Advancing Translational Sciences (NCATS), 2024).

The test system of this data set is human liver microsomes, metabolic stability half-life. Briefly: NCATS Human Liver Microsomal (HLM) Stability Profiling. The note with it: hits give high values. The text has this: Assay submitter (PI): Dr. Pranav Shah
NIH Center for Advancing Translational Sciences
Pharmacokinetic issues were the leading cause of drug attrition, accounting for approximately 40% of all cases before the turn of the century. To this end, several high-throughput in vitro assays like microsomal stability have been developed to evaluate the pharmacokinetic profiles of compounds in early stages of drug discovery. At NCATS, a single-point rat liver microsomal (RLM) stability assay is used as a Tier I assay, while human liver microsomal (HLM) stability is employed as a Tier II assay. While it is beneficial to have compound libraries screened for HLM stability, the increasing magnitude of hits routinely generated, and the time- and re-source-intensive nature of the assay makes it important to find alternatives. One strategy is to rely on in silico models that have been developed using data generated from these assays. Herein, we describe the development of an HLM stability prediction model using our in-house dataset of ~7,000 compounds, employing both traditional and advanced machine learning methods. […]
The substrate depletion method, also called the in vitro t1/2 method was used to analyze test compounds. […] Sample quantification and analysis was performed using a previously described method (Shah et al., 2016, Siramshetty et al., 2020). […]

For orientation: half-life means the time in which the quantity being followed falls by half. With `CCOP(=O)(CC)Oc1ccc([N+](=O)[O-])cc1` (stereo unspecified), the half-life is 2 h.
